Target: T1, chymotrypsin-like activity of the 26S proteasome (Homo sapiens, UniProt P28074)
T1 construct: endogenous in cells; host or cells: Jurkat (ATCC TIB-152, E6-1 clone) cell lysate
Experiment: Proteasome assay, chymotrypsin-like (ChT-L) activity, Suc-LLVY-AMC, Jurkat cell lysate
Format: biochemical
Protocol: The lysate was stored at −80° C. until the sample was used for the proteasome assay.
The compounds were diluted with lysis buffer; 10 μL of the compound-containing solution was added to the test wells at ten times the final concentration. […] The results are reported as the average of at least 3 technical replicates of IC50 values for proteasome inhibition.

Sequences of proteins named here, by UniProt entry; tags and fusion partners are left off. Residues count along the entry.
UniProt P28074, 60-263: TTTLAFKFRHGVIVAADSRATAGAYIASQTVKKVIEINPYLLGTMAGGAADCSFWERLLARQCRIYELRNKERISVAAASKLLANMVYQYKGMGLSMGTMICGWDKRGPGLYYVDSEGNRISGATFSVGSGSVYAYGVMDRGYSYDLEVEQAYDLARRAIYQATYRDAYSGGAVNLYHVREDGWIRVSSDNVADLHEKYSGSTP

Which “subunit selectivity, ChT-L over T-L (in words)” value does the source give for `CC[C@H](C)[C@@H]1C(=O)O[C@H]1C(=O)NCC(=O)N[C@H](C(=O)OCc1ccccc1)C(C)C` [Compound 10a, Benzyl ((2R,3S)-3-((S)-sec-butyl)-4-oxooxetane-2-carbonyl)glycyl-L-valinate] here?
Its value is “reduced selectivity”.

From patent US11396497B2, “Proteasome inhibitors” (New Mexico Tech University Research Park Corporation, priority 2018, dated 2022)
